AlphaSeq binding of Ab-14 heavy chain variants to a spike HR2 peptide

Reference: Li et al. 2023, doi:10.1038/s41467-023-39022-2. File: FLAb, binding data.

Binding partner: SARS-CoV-2 spike HR2 peptide, sequence PDVDLGDISGINAS.

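The starting antibody came from a phage panning campaign against this peptide. These sequences belong to a second round, designed from the earlier measurements on random variants of the parent. Several design methods are mixed in this list. Affinity was read by AlphaSeq, a pooled yeast mating assay with surface-displayed partners. Mating (16 h, 30 °C) was followed by selection of diploids and sequencing of their barcodes. Scores were corrected for input abundance and mapped to Kd with protein pairs of known affinity run in the same pool. Each pool was mated in six replicate cultures.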

The variants keep the light chain, the linker and the frameworks of Ab-14 (scFv order VH, a (GGGGS)3 linker, VL).
VH: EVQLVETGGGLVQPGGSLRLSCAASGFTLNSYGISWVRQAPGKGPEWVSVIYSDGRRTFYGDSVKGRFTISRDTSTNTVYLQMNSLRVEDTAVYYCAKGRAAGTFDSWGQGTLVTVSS
VL: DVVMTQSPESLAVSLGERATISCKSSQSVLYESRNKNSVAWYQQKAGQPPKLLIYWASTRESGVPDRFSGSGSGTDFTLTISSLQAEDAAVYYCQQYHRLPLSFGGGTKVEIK

The parent's heavy chain CDRs are GFTLNSYGIS, VIYSDGRRTFYGDSVK, GRAAGTFDS; each variant's own CDRs replace them letter for letter.
Variants here have at most six changes.
The Kd shown is the geometric mean over detected replicates; a lower Kd is a better binder.
Where no diploid with the target was found in any replicate, the entry reads "nd": below detection, most likely a poor binder, though not proof of it.
Nonspecific signal, from three strains lacking the peptide, appeared in 1% of pairings of all heavy chain designs, centred on 120 nM (5% of these signals below 7.0 nM); values are not corrected for it. The control count says in how many pairings with the empty strains this scFv gave a signal.
The range of this assay differs from that of the first round, and the authors advise against merging the two.
The parent sequence was in this pool as ten entries: three were never detected, three once, and four in most replicates, with averages from 2.2 nM to 240 nM.
Where one sequence has several entries in the source, the replicates are pooled.
In the paper, a design with two or fewer of six values counts as a poor binder.

Variant GFELNSYGIS | VIYADGRRTFYGDSVK | GRAAGTFDV showed 500 pM (6 of 6 replicates; controls 0 of 18). For GFNLNSYGIS | VIYSDGRRTFYKDKVK | GRTAGTFDS, the assay gave 3.4 nM (3 of 6 replicates; controls 0 of 18). For GFQLNEYGIS | VIYSDGRRTFYGDRVK | GRTAGTFDS, the assay gave 8.6 nM (3 of 6 replicates; controls 0 of 18). For GFTLNSYGIS | VIYADGRRTFYGDRVK | GEAAGTFDS, the assay gave 1.1 nM (6 of 6 replicates; controls 1 of 18). With GFTLNSYGIS | VIYSDGMRTFYKDSVK | GRAAGTGDS the result was nd (0 of 6 replicates; controls 0 of 18). Variant GFSLNAYGIS | VIYSDGRRTFYGDQVK | GRTAGTFDS gave 7.8 nM (6 of 6 replicates; controls 0 of 18). Variant GFTLNEYGIL | VIYSDGRRTFYTDSVK | GRFAGTFDS gave nd (0 of 6 replicates; controls 0 of 18). With GFTLNQYGIS | VIYSDGRRTFYSDSVK | GRLAGTFDT the result was 640 pM (6 of 6 replicates; controls 0 of 18).

For GFTLNSYGIS | VIYADGRRTFYGDSVK | GVAAGTFKM, the assay gave 2.0 nM (6 of 6 replicates; controls 0 of 18). With GFELNEYGIS | VIYSDGRRTFYGDSVK | GKSAGTFDS the result was 2.0 nM (6 of 6 replicates; controls 0 of 18). Variant GFTLLSYGIS | VIYSDGHRTFYGDSVK | GRAAGTFDS showed 23 nM (4 of 6 replicates; controls 0 of 18). For GFVLNDYGIS | VIYSDGRRTFYGDSVK | GRTAGTFDK, the assay gave 23 nM (5 of 6 replicates; controls 0 of 18). Variant GFTLLSYGIS | VIYSDGHRTFYTDSVK | GRAADTFDS showed nd (0 of 6 replicates; controls 0 of 18). With GFSLNSYGIS | VIYSDGRRTFYADNVK | GRAAGTFDS the result was 2.8 nM (6 of 6 replicates; controls 1 of 18). With GFSLNSYGIS | VIYSDGRRTFYGDSVK | GKVAGTFDS the result was 1.2 nM (6 of 6 replicates; controls 0 of 18). Variant GFTLNSYGIS | VIYSDGRRTFYGDNVK | GRAAGKFDS showed nd (0 of 6 replicates; controls 0 of 18).

Variant GNTLNQYGRS | VIGSDGRRTFYSDSVK | GRAAGVFDS showed nd (0 of 6 replicates; controls 0 of 18). With HFDLNSYGIS | VIYSDGRRTFYADSVK | GNAAGTFDS the result was 5.4 nM (6 of 6 replicates; controls 2 of 18). For GFELNSYGIS | VIYSDGRRTFYTDSVK | GSAAGTFDS, the assay gave 2.5 nM (6 of 6 replicates; controls 0 of 18). With GFSLNEYGIS | VIYSDGRRTFYGDSVK | GRQAGTFDS the result was 580 pM (6 of 6 replicates; controls 1 of 18). Variant GFTLNSYGIS | VIYSDGRRTFYADSVK | GRAAGTFDN gave 1.9 nM (6 of 6 replicates; controls 0 of 18). With GFTLNSYGIS | VIYSDGIRTFYGDSVK | GREAGTDDS the result was 5.7 µM (1 of 18 replicates; controls 1 of 54). With GFSLNSYGIS | VIYSDGRRTFYGDSVK | GRTAGTFDD the result was 3.1 nM (6 of 6 replicates; controls 0 of 18). With GFTLNSYGIS | VIYSDGRRTFYIDSVK | GQIAGTFDS the result was nd (0 of 6 replicates; controls 0 of 18).

Variant GFGLNSYGIS | VIYSDGRRTFYADSVK | GKVAGTFDS showed 490 pM (6 of 6 replicates; controls 0 of 18). Variant MFNLNSYGIS | VIYSDGRRTFYGDSVK | TDAHQTFDS gave nd (0 of 6 replicates; controls 0 of 18). Variant GFELNDYGIS | VIYSDGRRTFYGDSVK | GRNAGTFDS gave 1.6 nM (6 of 6 replicates; controls 0 of 18). Variant PFDLNSYGIS | VIYSDGRRTFYGDSVK | GRQAGTFDS gave 22 nM (6 of 6 replicates; controls 0 of 18). Variant GFTLNEYGIS | VIYSDGRRTFYGDSVK | GRTAGTFDA showed 280 pM (6 of 6 replicates; controls 1 of 18). Variant GFDLNEYGIS | VIYADGRRTFYADSVK | GEAAGTFDN gave 780 pM (6 of 6 replicates; controls 0 of 18). Variant GFWLNEYGIS | VIYSDGRRTFYGDSVK | GRIAGTFDS gave nd (0 of 6 replicates; controls 0 of 18). Variant GFTLNQYGIS | VIYSDGKRTFYSDSVK | GQAAGTFDS showed 1.9 nM (6 of 6 replicates; controls 2 of 18).

Variant GFDLNEYGIS | VIYSDGRRTFYGDQVK | GEAAGTFDK gave 4.2 nM (6 of 6 replicates; controls 0 of 18). With GFHLNSYGIS | VIYSDGRRTFYDDSVK | GKTAGTFDS the result was 100 nM (5 of 6 replicates; controls 0 of 18). For GFDLNSYGIS | VIYSDGRRTFYDDNVK | GKAAGTFDS, the assay gave 15 nM (6 of 6 replicates; controls 2 of 18). Variant KFQLNEYGIS | VIYSDGRRTFYGDSVK | GRNAGTFDS showed nd (0 of 6 replicates; controls 0 of 18).

Excerpt, the final 5 entries:

CDR-H1,CDR-H2,CDR-H3,apparent Kd,seen in,signal with controls
GFTLNQYGIS,VIYSDGKRTFYSDSVK,GQAAGTFDS,1.9 nM,6 of 6,2 of 18
GFDLNEYGIS,VIYSDGRRTFYGDQVK,GEAAGTFDK,4.2 nM,6 of 6,0 of 18
GFHLNSYGIS,VIYSDGRRTFYDDSVK,GKTAGTFDS,100 nM,5 of 6,0 of 18
GFDLNSYGIS,VIYSDGRRTFYDDNVK,GKAAGTFDS,15 nM,6 of 6,2 of 18
KFQLNEYGIS,VIYSDGRRTFYGDSVK,GRNAGTFDS,nd,0 of 6,0 of 18